In PMC2995924 (International journal of high throughput screening, 2010):

Target: T1, Ca2+-bound S100B (Rattus norvegicus, UniProt P04631)
T1 sequence (P04631 1-92): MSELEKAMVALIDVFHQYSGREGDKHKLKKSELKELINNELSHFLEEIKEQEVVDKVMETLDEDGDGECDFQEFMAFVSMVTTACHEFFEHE
Assay: NMR 1H-15N HSQC chemical shift perturbation secondary screen
Format: binding
Details: 10-fold excess compound versus S100B (100 μM; 10 mM Ca2+)

- NMR (confirmed to bind S100B via NMR HSQC experiments): Yes
SMILES: CN(C)CCCN1c2ccccc2Sc2ccc(Cl)cc21 [SC0067, chlorpromazine]
